According to article PMC6104973, “ALX148 blocks CD47 and enhances innate and adaptive antitumor immunity with a favorable safety profile” (PLoS ONE, 2018):

Molecular target: ALX222 (human)
Assay: SPR; hFcγRs flowed (0-5000 nM) over ALX proteins captured on a GLC chip with immobilised human CD47 ECD; 25°C; PBS pH 7.4, 0.01% Tween-20; equilibrium analysis, for FcγRI also a kinetic Langmuir fit; apparent
Details: both partners purified

Kd: 2.2 µM
B1: human FcγRIIB/C (receptor, UniProt P31994 43-217, looked up)
chain: TPAAPPKAVLKLEPQWINVLQEDSVTLTCRGTHSPESDSIQWFHNGNLIPTHTQPSYRFKANNNDSGEYTCQTGQTSLSDPVHLTVLSEWLVLQTPHLEFQEGETIVLRCHSWKDKPLVKVTFFQNGKSKKFSRSDPNFSIPQANHSHSGDYHCTGNIGYTLYSSKPVTITVQAP
notes: Fc gamma receptor IIB/C as printed, human, recombinant soluble; Printed as FcγRIIB/C; also called hFcγRIIB/C
